Tested on: histamine receptor
Assay: Sleep-improving mechanism: pentobarbital sleep test with histamine receptor agonist PD
Details: mouse, in vivo

## pyrilamine maleate salt [PMS]
  effect of histamine receptor agonist PD on the sleep-improving effect (sleep latency, sleep duration): completely inhibited by PD

— US20150320823A1, “NOVEL USE OF RICE, RICE BRAN OR RICE HULL EXTRACT AS AN HISTAMINE RECEPTOR ANTAGONIST” (KOREA FOOD RESEARCH INSTITUTE, priority 2011, published 2015)
